Source: US20070010428A1, “Inhibitors of signal transduction and activator of transcription 3” (priority 2004, published 2007)
pIC50: −log10 of the molar value.

Sequences of proteins named here, by UniProt entry; tags and fusion partners are left off.
UniProt P40763, whole entry: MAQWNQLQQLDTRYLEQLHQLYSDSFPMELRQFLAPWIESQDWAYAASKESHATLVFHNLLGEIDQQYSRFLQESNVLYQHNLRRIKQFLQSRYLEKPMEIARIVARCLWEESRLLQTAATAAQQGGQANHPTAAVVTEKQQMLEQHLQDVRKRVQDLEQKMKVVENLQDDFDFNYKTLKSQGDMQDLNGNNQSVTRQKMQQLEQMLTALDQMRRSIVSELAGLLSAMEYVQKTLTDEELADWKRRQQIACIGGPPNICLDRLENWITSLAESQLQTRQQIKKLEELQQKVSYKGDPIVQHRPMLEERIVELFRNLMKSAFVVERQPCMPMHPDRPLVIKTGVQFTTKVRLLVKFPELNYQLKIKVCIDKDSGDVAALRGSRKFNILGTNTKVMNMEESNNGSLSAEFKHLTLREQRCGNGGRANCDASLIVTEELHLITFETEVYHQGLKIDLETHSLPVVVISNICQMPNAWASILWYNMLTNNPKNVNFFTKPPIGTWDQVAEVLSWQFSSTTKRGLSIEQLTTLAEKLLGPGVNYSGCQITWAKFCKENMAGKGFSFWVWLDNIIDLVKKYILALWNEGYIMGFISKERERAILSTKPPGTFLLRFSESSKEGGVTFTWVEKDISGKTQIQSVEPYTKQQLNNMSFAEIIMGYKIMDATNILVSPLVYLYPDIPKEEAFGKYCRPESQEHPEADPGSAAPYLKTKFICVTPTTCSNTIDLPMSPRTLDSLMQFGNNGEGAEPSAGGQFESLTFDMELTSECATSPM

Target: Stat3 (UniProt P40763)
Assay: fluorescence polarization competition

pInd-Leu-Pro-Gln-Thr-NH2 (6, PM-59D)
pIC50: 6.82
